Assay results from patent publication US5654299A, “Aryl substituted heterocycles” (Zeneca Limited, priority 1993, dated 1997).

Protein sequences, listed by entry. Tags and fused reporters are not part of them.
UniProt P21452, whole entry: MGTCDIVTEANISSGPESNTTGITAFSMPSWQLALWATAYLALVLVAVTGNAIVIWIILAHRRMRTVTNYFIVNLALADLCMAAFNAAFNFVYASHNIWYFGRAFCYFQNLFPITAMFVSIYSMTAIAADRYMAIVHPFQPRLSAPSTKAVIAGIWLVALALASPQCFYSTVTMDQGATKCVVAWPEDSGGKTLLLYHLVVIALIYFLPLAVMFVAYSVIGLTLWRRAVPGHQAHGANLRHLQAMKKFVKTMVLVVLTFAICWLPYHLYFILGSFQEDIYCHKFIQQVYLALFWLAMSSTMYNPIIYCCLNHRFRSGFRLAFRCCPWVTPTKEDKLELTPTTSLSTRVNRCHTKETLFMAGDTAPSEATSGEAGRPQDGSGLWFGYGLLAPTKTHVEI

Legend:
NK2 = conditions: literature; cited from earlier work
human NK2 receptor = human NK2 receptor (Homo sapiens, UniProt P21452); experiment: Neurokinin A (NKA) Receptor-binding Assay (Test A), 3H-NKA binding to MEL cell membranes (MELM); conditions: read-out: IC50 versus 3H-NKA binding to MELM; initial use of Test A; standard compound

- IC50 (human NK2 receptor): 30 nM
Compound: CSCC[C@@H]1NC(=O)[C@H](CC(C)C)NC(=O)CNC(=O)[C@H](Cc2ccccc2)NC(=O)[C@H](Cc2c[nH]c3ccccc23)NC(=O)[C@H](CCC(N)=O)NC1=O
- NK2 antagonism, selectivity in words (NK2): selective NK2 antagonist
